Experimental data taken from PubChem BioAssay AID1465 (SRMLSC, 2008).
The list shows a part of the results. Potency and affinity values are given separately. Some structures show a salt or complex split into parts, the way the source records it. Active and inactive are the calls of the source.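 Rule for the calls: active = fold induction of absorbance versus untreated yeast above a set limit, then at least 30% activation at any dose in follow-up; inconclusive = repeats straddling the limit, or above it without dose testing; inactive = fold induction below the set limit.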

Test: enhancers of respiration in Yfh1-depleted yeast, dose response, Friedreich's ataxia, plus single-dose screen (AID 1465)
Settings: S. cerevisiae Yfh1-off respiration, WST-1 reduction, 72 h; at 50 µM; stronger effect = higher value

| SMILES | fold induction |
| --- | --- |
| CP(=S)(Nn1cnnc1)Oc1ccccc1 (stereo unspecified) | inactive: 1.06 |
| CP(=O)(Nc1ccccc1Br)Oc1ccccc1 (stereo unspecified) | inactive: 0.99 |
| COc1ccccc1OP(C)(=O)Nc1ccccc1 (stereo unspecified) | inactive: 1.05 |
| CCOC(=O)c1ccc(NP(C)(=O)Oc2ccc(OC)cc2)cc1 (stereo unspecified) | inactive: 0.8 |
| CCOP(C)(=S)SCC(=O)NC(C)C(=O)O (stereo unspecified) | inactive: 1.1 |
| CP(=O)(Nc1ccccn1)Oc1ccc(Cl)cc1 (stereo unspecified) | inactive: 1.04 |
| Cc1cccc(C)c1OP(C)(=O)Nc1ccc(SC(F)(F)F)cc1 (stereo unspecified) | inactive: 0.82 |
| CP(=O)(Nc1ccc(SC(F)(F)F)cc1)Oc1ccc(Cl)cc1 (stereo unspecified) | inactive: 1.09 |
| CP(=O)(Oc1ccccc1)OC(c1ccccc1)C(F)(F)F (stereo unspecified) | inactive: 0.86 |
| CCc1ccc(OP(C)(=O)N2CCN(c3ccc([N+](=O)[O-])cc3)CC2)cc1 (stereo unspecified) | inactive: 1.09 |
| CP(=O)(NC(=O)Nc1ccccc1)Oc1ccccc1 (stereo unspecified) | inactive: 1.03 |
| Cc1cc(C)cc(OP(C)(=O)Nc2ccc(SC(F)(F)F)cc2)c1 (stereo unspecified) | inactive: 1.04 |
| CCN(CC)CCCOC(=O)C(O)(c1ccccc1)c1ccccc1 | inactive: 1.04 |
| COc1ccccc1OP(C)(=O)Nc1ccc(C)cc1 (stereo unspecified) | inactive: 1.09 |
| CCOC(=O)c1ccc(NP(C)(=O)Oc2ccccc2)cc1 (stereo unspecified) | inactive: 1.06 |
| Cc1cc(C)cc(OP(C)(N)=O)c1 (stereo unspecified) | inactive: 1.02 |
| COc1ccccc1OP(C)(=O)Nc1cc(Cl)ccc1C (stereo unspecified) | inactive: 1.18 |
| O=[N+]([O-])c1ccc2c(c1)C=Nc1ccccc1O2 | inactive: 0.85 |
| CC(C)(C)c1ccc(OP(C)(=O)Nc2ccc(SC(F)(F)F)cc2)cc1 (stereo unspecified) | inactive: 1.04 |
| Cc1cccc(C)c1OP(C)(N)=O (stereo unspecified) | inactive: 1 |
| CC1=NCCc2c1[nH]c1ccccc21.O=[N+]([O-])c1cc([N+](=O)[O-])c(O)c([N+](=O)[O-])c1 | inactive: 1.14 |

| SMILES | fold induction |
| --- | --- |
| O=C(O)c1cccc(Nc2c([N+](=O)[O-])cc([N+](=O)[O-])cc2[N+](=O)[O-])c1 | inactive: 1.2 |
| Cc1ccc(C)c(NP(C)(=O)Oc2ccccc2)c1 (stereo unspecified) | inactive: 1.12 |
| CP(=O)(Nc1cccc(Br)c1)Oc1ccccc1 (stereo unspecified) | inactive: 0.98 |
| Cc1cc(C)cc(OP(C)(=O)Nc2ccccn2)c1 (stereo unspecified) | inactive: 1.06 |
| COc1ccccc1OP(C)(=O)Nc1cccc(Br)c1 (stereo unspecified) | inactive: 0.99 |
| CCOC(=O)c1ccc(NP(C)(=O)Oc2cc(C)cc(C)c2)cc1 (stereo unspecified) | inactive: 0.97 |
| Cc1cc(C)cc(OP(C)(=O)Nc2ccc(C)cc2C)c1 (stereo unspecified) | inactive: 0.95 |
| Cc1nc2ccc3ccccc3c2s1.O=[N+]([O-])c1cc([N+](=O)[O-])c(O)c([N+](=O)[O-])c1 | inactive: 0.97 |
| O=[N+]([O-])c1cc([N+](=O)[O-])c(-n2nnc3ccccc32)c([N+](=O)[O-])c1 | inactive: 1.13 |
| COc1ccccc1OP(C)(=O)Nc1c(C)cccc1C (stereo unspecified) | inactive: 1 |
| CN1CCCCC1COC(=O)C1(O)c2ccccc2CCc2ccccc21 (stereo unspecified) | inactive: 0.84 |
| CP(=O)(Nc1ccc(SC(F)(F)F)cc1)Oc1ccccc1 (stereo unspecified) | inactive: 0.98 |
| CCCOc1ccc(NP(C)(=O)Oc2ccc(Cl)cc2)cc1 (stereo unspecified) | inactive: 0.94 |
| CCOC(=O)C(CC)C1=NC(C)(C)Cc2ccccc21.O=[N+]([O-])c1cc([N+](=O)[O-])c(O)c([N+](=O)[O-])c1 (stereo unspecified) | inactive: 1.09 |
| O=[N+]([O-])c1ccc(OP2(=O)COCCO2)cc1 (stereo unspecified) | inactive: 1.05 |
| O=[N+]([O-])c1cc([N+](=O)[O-])c(NCC2CCS(=O)(=O)C2)c([N+](=O)[O-])c1 (stereo unspecified) | inactive: 1.08 |
| Cc1cc(-c2cccc3ccccc23)c(C)cn1.O=[N+]([O-])c1cc([N+](=O)[O-])c(O)c([N+](=O)[O-])c1 | inactive: 1.03 |
| COc1ccc(OP(C)(=O)Nc2cccc(Br)c2)cc1 (stereo unspecified) | inactive: 0.93 |
| CN(C)CCOC(=O)C(O)(c1ccccc1)C1CCCCC1 (stereo unspecified) | inactive: 0.99 |
| COc1ccc(NP(C)(=O)Oc2ccccc2OC)cc1 (stereo unspecified) | inactive: 1.02 |
| CP(=O)(Nc1ccc2c(c1)OCCO2)Oc1ccccc1 (stereo unspecified) | inactive: 1.02 |

| SMILES | fold induction |
| --- | --- |
| Cc1ccccc1NP(C)(=O)Nc1ccccc1C | inactive: 1.14 |
| CP(=O)(Nc1ccc(SC(F)(F)F)cc1)Oc1ccc(F)cc1 (stereo unspecified) | inactive: 1.06 |
| CCOP(C)(=S)SCC(=O)NC(C)(CC)C(=O)O (stereo unspecified) | inactive: 0.99 |
| O=C(OC1CN2CCC1CC2)c1ccc([N+](=O)[O-])cc1 (stereo unspecified) | inactive: 1.06 |
| O=C(OCCN1CCN(CCOCc2ccccc2)CC1)C(O)(c1ccccc1)c1ccccc1 | inactive: 0.93 |
| COc1ccc2c(c1O)-c1c(O)c(OC)cc3c1[C@H](C2)[N+](C)(C)CC3.O=[N+]([O-])c1cc([N+](=O)[O-])c([O-])c([N+](=O)[O-])c1[O-] | inactive: 1.15 |
| CP(=O)(Nc1ccccc1F)Oc1ccccc1 (stereo unspecified) | inactive: 0.99 |
| CC(C)c1ccc(OP(C)(=O)Nc2ccc(SC(F)(F)F)cc2)cc1 (stereo unspecified) | inactive: 1.02 |
| CCN(CC)CCCOC(=O)C(O)(c1ccccc1)C1CCCCC1 (stereo unspecified) | inactive: 1 |
| CP(=O)(Nc1ccccc1)Oc1ccc(F)cc1 (stereo unspecified) | inactive: 1.08 |
| CCCCCOc1ccc(NP(C)(=O)Oc2ccc(Cl)cc2Cl)cc1 (stereo unspecified) | inactive: 1.02 |
| CCOC(=O)c1ccc(NP(C)(=O)Oc2ccc(F)cc2)cc1 (stereo unspecified) | inactive: 1.11 |
| COc1ccc(OP(C)(=O)Nc2ccc(SC(F)(F)F)cc2)cc1 (stereo unspecified) | inactive: 0.87 |
| Cc1nc2ccc3ccccc3c2o1.O=[N+]([O-])c1cc([N+](=O)[O-])c(O)c([N+](=O)[O-])c1 | inactive: 1.2 |
| CP(=O)(OCCOc1ccccc1)OCCOc1ccccc1 | inactive: 0.92 |
| CP(=O)(Nc1ccc(Cl)cc1Cl)Oc1ccccc1 (stereo unspecified) | inactive: 0.87 |
| Cc1cc(C)cc(OP(C)(=O)Nc2cccc(C(F)(F)F)c2)c1 (stereo unspecified) | inactive: 1.06 |
| COc1ccccc1OP(C)(=O)Nc1ccc(C)c(C)c1 (stereo unspecified) | inactive: 0.947 |
| COc1ccc(OP(C)(=O)Nc2ccccc2Br)cc1 (stereo unspecified) | inactive: 0.75 |
| O=[N+]([O-])c1cc([N+](=O)[O-])c(Nc2ccccn2)c([N+](=O)[O-])c1 | inactive: 1.17 |
| Cc1c(NP(C)(=O)Oc2ccc(C(C)C)cc2)c(=O)n(-c2ccccc2)n1C (stereo unspecified) | inactive: 0.89 |

| SMILES | fold induction |
| --- | --- |
| CP(=O)(Nc1ccccn1)Oc1ccccc1 (stereo unspecified) | inactive: 0.98 |
| COc1ccccc1OP(C)(=O)Nc1ccc(C)cc1C (stereo unspecified) | inactive: 1.12 |
| CCc1ccc(OP(C)(=O)O)cc1 | inactive: 1.12 |
| COc1ccccc1OP(C)(=O)Nc1ccc(Br)cc1 (stereo unspecified) | inactive: 1.13 |
| COc1ccc(OP(C)(=O)Nc2ccccn2)cc1 (stereo unspecified) | inactive: 0.88 |
| CN(C)CCOC(=O)C(O)(c1ccccc1)C1CCCC1 (stereo unspecified) | inactive: 1.03 |
| CC(C)(C)c1ccc(OP(C)(=O)O)cc1 | inactive: 0.99 |
| COc1ccccc1OP(C)(=O)Nc1ccccc1Br (stereo unspecified) | inactive: 0.95 |
| CP(=O)(Nc1ccc(Cl)cc1)Oc1ccc(F)cc1 (stereo unspecified) | inactive: 1.04 |
| CN(C)C(=O)c1c([N+](=O)[O-])cc([N+](=O)[O-])cc1[N+](=O)[O-] | inactive: 1 |
| CCN(CC)CC(O)COC(=O)C(O)(c1ccccc1)C1CCCCC1 (stereo unspecified) | inactive: 1.11 |
| COc1ccc(OP(C)(=O)Nc2ccc(Br)cc2)cc1 (stereo unspecified) | inactive: 0.85 |
| COc1ccccc1OP(C)(=O)Nc1c(C)n(C)n(-c2ccccc2)c1=O (stereo unspecified) | inactive: 1.03 |
| O=C(OCCCN1CCCC1)C(O)(c1ccccc1)C1CCCCC1 (stereo unspecified) | inactive: 1 |
| CP(=O)(Oc1ccccc1)N1CCOC1=O (stereo unspecified) | inactive: 1.06 |
| CCc1ccc(OP(C)(=O)Nc2cccnc2)cc1 (stereo unspecified) | inactive: 1.05 |
| CCOC(=O)c1ccc(NP(C)(=O)Oc2ccc(Cl)cc2)cc1 (stereo unspecified) | inactive: 0.81 |
| CP(=O)(OC12CC3CC(CC(C3)C1)C2)OC12CC3CC(CC(C3)C1)C2 | inactive: 0.88 |
